miR122 inh = blocks miR-122 activity in Huh7 sensor cells; 340,000 tested, 0.3% active; activation (reporter increase), % at 12.5 µM; Huh7 miR-122 Renilla luciferase sensor, 48 h; neutral wells = 0, positive control = 100;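 active = mean replicate activation score at least 90 and every replicate individually at or above 90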;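 note: higher luciferase means less miR-122 activity so hits act as miR-122 inhibitors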
UUG fidelity = yeast start codon fidelity modulation. S. cerevisiae UUG-firefly luciferase reporter, luminescence/redox ratio. activity score, % at 18.7 µM. 0.13% of 350,000 active;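 active = replicate mean at a twofold rise or more, about +100% in these data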;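 also: firefly luciferase made from a UUG start codon reports start codon fidelity; reporter light over untreated wells divided by growth signal over untreated wells; some hits fall short of that in this replicate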
PglD DTNB = blocks C. jejuni PglD acetyltransferase activity; purified PglD enzyme, DTNB colorimetric CoA detection; AID 602405; inhibition, % at 12.5 µM; 360,000 tested, 0.098% active; in the data active = inhibition above about 16%, passing the limit was not always enough
esBAF inh = blocks esBAF chromatin remodeling in mouse ES cells; Bmi1-luciferase knock-in reporter, 24 h; 100% = twice the neutral-well signal; reporter increase, % at 12.5 µM; 350,000 tested, 2% active; AID 602393; in the data active = activation above about 40%;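 note: a rise in the Bmi1 reporter signal indicates esBAF inhibition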
MITF act = increases MITF-driven TRPM1 promoter luciferase signal; 300,000 tested, 0.75% active; activation, % at 12.5 µM; AID 588334; SK-MEL-5 TRPM1-promoter luciferase, 24 h; % of positive control, neutral wells = 0;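 active = mean activation of at least 80% with every replicate also reaching 80%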
Wnt bcat act = activates Wnt/beta-catenin signaling in a reporter cell assay | AID 743398 | 300,000 tested, 1.2% active | activation, % at 9.35 µM | activator, plate reader; in the data active = activation above about 30%, passing the limit was not always enough
Ring1 derepress = esBAF inhibition confirmed by Ring1 de-repression | shares compounds with esBAF inh | mouse ESC E14, Ring1 mRNA RT-qPCR fold change | fold change at 33 µM | 550 tested, under 10 active;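 active = Ring1 gene expression raised more than 2-fold over untreated cells in both replicates at either tested dose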;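 note: Ring1 transcript normalised to actin housekeeping signal by TaqMan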
Fgf4 repress = confirmation of esBAF inhibitors: Fgf4 repression in mouse ESCs. Fgf4 expression fold change at 33 µM. mouse ESC E14, Fgf4 mRNA qPCR fold change; active compounds read low. 550 tested, 4% active. shares compounds with esBAF inh;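 active = Fgf4 expression under 0.8 fold of control in both repeat measurements at one or both tested doses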;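 note: Fgf4 transcript normalised to actin in duplex TaqMan qPCR; cells exposed to compound for 24 h before lysis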
Bmi1 derepress = confirmation of esBAF inhibitors: Bmi1 de-repression in mouse ESCs; shares compounds with esBAF inh; fold change at 33 µM; mouse ESE14 ES cells, Bmi1 mRNA qPCR fold; active compounds read high; 550 tested, under 10 active;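 active = Bmi1 expression fold change above 6 at either tested concentration, seen in replicate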;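 note: higher fold means more Bmi1 de-repression and stronger esBAF inhibition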
A549 cytotox = kills or reduces viability of A549 cells. shares compounds with esBAF inh. 550 tested, under 10 active. cell viability change % (negative = cytotoxic), % at 25 µM, hits read low. A549 cytotoxicity, plate reader; call rule not given here
HepG2 tox SP = cytotoxicity in HepG2 cells; activity change, negative = inhibition, % at 25 µM; shares compounds with esBAF inh; 550 tested, 4% active; plate reader; active compounds read low; in the data active = activity change below about -50%
HEK293 tox SP = kills or reduces viability of HEK293 cells. shares compounds with esBAF inh. HEK293 cytotoxicity, plate reader. activity change, negative = inhibition, % at 25 µM, hits read low. 550 tested, 3% active; in the data active = activity change below about -38%, passing the limit was not always enough
Large screens that a line does not name were inactive (follow-up assays come after a bar, where they were run). A selection: hits, their analogues and other compounds. The true share with any hit is near 2.8%.

O=C(CCNS(=O)(=O)c1cccs1)N1CCc2ccccc2C1	esBAF inh 68 | Ring1 derepress inactive | Fgf4 repress inactive | Bmi1 derepress inactive | A549 cytotox inactive | HepG2 tox SP inactive | HEK293 tox SP inactive
CC1CC(C)CN(C(=O)CCNS(=O)(=O)c2cccs2)C1 (centres undefined)	none (no result: esBAF inh)
O=C(C[C@@H]1C=C[C@@H](NC(=O)NC2CCCCC2)[C@H](CO)O1)NCc1ccc(F)cc1	none (no result: MITF act, Wnt bcat act)
O=C(Cn1c(/C=C/c2ccccc2)nc2ccccc21)Nc1ccc(F)cc1	esBAF inh 80, MITF act 85 | Ring1 derepress inactive | Fgf4 repress inactive | Bmi1 derepress inactive | A549 cytotox inactive | HepG2 tox SP inactive | HEK293 tox SP inactive
ON=C(CCc1ccccc1)c1ccccc1	esBAF inh 74 (no result: MITF act) | Ring1 derepress inactive | Fgf4 repress inactive | Bmi1 derepress inactive | A549 cytotox inactive | HepG2 tox SP inactive | HEK293 tox SP inactive
O=C(NCC1CC1)[C@@H]1[C@@H](CO)[C@@H]2Cn3c(ccc(-c4ccccc4)c3=O)[C@@H]2N1CC1CC1	none (no result: UUG fidelity, MITF act, Wnt bcat act)
Cc1csc(SCCN2C(=O)c3ccccc3C2=O)n1	esBAF inh 65 | Ring1 derepress inactive | Fgf4 repress inactive | Bmi1 derepress inactive | A549 cytotox inactive | HepG2 tox SP inactive | HEK293 tox SP inactive
O=C1c2ccccc2C(=O)N1CCSc1nncs1	none (no result: Wnt bcat act)
O=c1oc(-c2ccccc2)cc2ccccc12	esBAF inh 77 (no result: MITF act) | Ring1 derepress inactive | Fgf4 repress inactive | Bmi1 derepress inactive | A549 cytotox inactive | HepG2 tox SP inactive | HEK293 tox SP inactive
Cc1cc(=O)oc2cc(NC(=O)c3cccc(F)c3)ccc12	esBAF inh 68 | Ring1 derepress inactive | Fgf4 repress inactive | Bmi1 derepress inactive | A549 cytotox inactive | HepG2 tox SP inactive | HEK293 tox SP inactive
Cc1ccc(OCn2c(=O)sc3ccccc32)cc1	esBAF inh 66 | Ring1 derepress inactive | Fgf4 repress inactive | Bmi1 derepress inactive | A549 cytotox inactive | HepG2 tox SP inactive | HEK293 tox SP inactive
COc1cccc(NC(=O)C(=O)NCCC2CCCCN2S(=O)(=O)c2cccs2)c1 (centres undefined)	esBAF inh 60, MITF act 96, Wnt bcat act 39 (no result: miR122 inh, UUG fidelity, PglD DTNB) | Ring1 derepress inactive | Fgf4 repress inactive | Bmi1 derepress inactive | A549 cytotox inactive | HepG2 tox SP inactive | HEK293 tox SP inactive
COc1cccc(NC(=O)C(=O)NCC2CCCN2S(=O)(=O)c2cccs2)c1 (centres undefined)	esBAF inh 62 (no result: MITF act) | Ring1 derepress inactive | Fgf4 repress inactive | Bmi1 derepress inactive | A549 cytotox inactive | HepG2 tox SP inactive | HEK293 tox SP inactive
COc1ccc(S(=O)(=O)N(C)C[C@H]2Oc3ccc(NC(=O)CCCCCC(=O)Nc4ccccc4N)cc3CC(=O)N([C@H](C)CO)C[C@H]2C)cc1	none (no result: MITF act, Wnt bcat act)
CC(C)N1CC2(CC(c3ccccc3C(F)(F)F)=NO2)CN1C(=O)c1ccc(C(C)(C)C)cc1 (centres undefined)	none (no result: UUG fidelity, PglD DTNB, MITF act)
CC(C)N1CC2(CC(c3ccccc3F)=NO2)CN1C(=O)c1ccc(C(C)(C)C)cc1 (centres undefined)	esBAF inh 75 (no result: UUG fidelity, PglD DTNB, MITF act) | Ring1 derepress inactive | Fgf4 repress inactive | Bmi1 derepress inactive | A549 cytotox inactive | HepG2 tox SP inactive | HEK293 tox SP inactive
C=CCn1c(O)c(C=Nc2ccccc2)sc1=S	esBAF inh 68 | Ring1 derepress inactive | Fgf4 repress inactive | Bmi1 derepress inactive | A549 cytotox inactive | HepG2 tox SP inactive | HEK293 tox SP inactive
Oc1c(C=Nc2ccccc2)sc(=S)n1Cc1ccccc1	none (no result: miR122 inh, UUG fidelity, PglD DTNB)
Cc1cccc(-c2noc(CCC(=O)N3CCN(c4cc(C)ccc4C)CC3)n2)c1	esBAF inh 63 | Ring1 derepress inactive | Fgf4 repress inactive | Bmi1 derepress inactive | A549 cytotox inactive | HepG2 tox SP inactive | HEK293 tox SP inactive
CC(/C=C/c1ccc(N(C)C)cc1)=N/N=C1/NC(=O)CC(C(=O)Nc2ccc(Cl)cc2)S1 (centres undefined)	none (no result: esBAF inh, Wnt bcat act)
CCCOc1ccc(NC(=O)C2CC(=O)N/C(=N/N=C(C)/C=C/c3ccc(N(C)C)cc3)S2)cc1 (centres undefined)	esBAF inh 59 (no result: Wnt bcat act) | Ring1 derepress inactive | Fgf4 repress inactive | Bmi1 derepress inactive | A549 cytotox inactive | HepG2 tox SP inactive | HEK293 tox SP inactive
COc1ccc(OCc2cc(C(=O)NC(C)c3csc(C)n3)no2)c(Cl)c1 (centres undefined)	esBAF inh 66 | Ring1 derepress inactive | Fgf4 repress inactive | Bmi1 derepress inactive | A549 cytotox inactive | HepG2 tox SP inactive | HEK293 tox SP inactive
COC(=O)CN(C)C(=O)c1ccc2nc(Cc3cccc(Cl)c3)oc2c1	esBAF inh 66, MITF act 107 | Ring1 derepress inactive | Fgf4 repress inactive | Bmi1 derepress inactive | A549 cytotox inactive | HepG2 tox SP inactive | HEK293 tox SP inactive
CN(Cc1ccccn1)C(=O)c1ccc2nc(Cc3cccc(Cl)c3)oc2c1	none (no result: esBAF inh)
S=c1[nH]nc(SCc2ccccc2)c2[nH]cnc12	esBAF inh 55 | Ring1 derepress inactive | Fgf4 repress inactive | Bmi1 derepress inactive | A549 cytotox inactive | HepG2 tox SP inactive | HEK293 tox SP inactive
O=c1c(-c2nc3ccccc3s2)cccn1Cc1ccc(Cl)cc1	esBAF inh 67 (no result: MITF act) | Ring1 derepress inactive | Fgf4 repress inactive | Bmi1 derepress inactive | A549 cytotox inactive | HepG2 tox SP inactive | HEK293 tox SP inactive
Clc1ncccc1-c1nc2ccccc2s1	none (no result: miR122 inh, UUG fidelity, PglD DTNB, esBAF inh)
O=C(N[C@H]1CC[C@H](CCNS(=O)(=O)c2ccc(F)cc2)O[C@@H]1CO)c1ccccn1	none (no result: miR122 inh, MITF act, Wnt bcat act)
CC(C)Cc1cc(C(=O)Nc2cccc(O)c2)no1	none (no result: UUG fidelity, PglD DTNB)
CC(C)Cc1cc(C(=O)Nc2ccc(Br)cc2)no1	esBAF inh 69, MITF act 111, Wnt bcat act 37 (no result: UUG fidelity, PglD DTNB) | Ring1 derepress inactive | Fgf4 repress inactive | Bmi1 derepress inactive | A549 cytotox inactive | HepG2 tox SP inactive | HEK293 tox SP inactive

Bioassay records as filed in PubChem.
